Assay results published in PubChem BioAssay (NCATS).
Values joined by “and” are separate entries in the source; they are usually repeats but may differ in a detail not shown here. Identical values can stand only once. Only a part is listed here, and it is no random draw. Records with an inconclusive call do not appear. For some of these results: Entries with a potency or affinity are not part of this list. Active and inactive are the calls of the source. Unless noted, calls follow the shape of the dose curve; as a rule, active = well fitted curve in the direction sought with a large enough effect; inconclusive = small, poorly fitted or top-dose-only effect, or another doubt; inactive = no such curve, though single readings can be large; an effect the other way counts as inactive or inconclusive.

Sequences of proteins named here, by UniProt entry; tags and fusion partners are left off. Residues count along the entry.
UniProt P10828, whole entry: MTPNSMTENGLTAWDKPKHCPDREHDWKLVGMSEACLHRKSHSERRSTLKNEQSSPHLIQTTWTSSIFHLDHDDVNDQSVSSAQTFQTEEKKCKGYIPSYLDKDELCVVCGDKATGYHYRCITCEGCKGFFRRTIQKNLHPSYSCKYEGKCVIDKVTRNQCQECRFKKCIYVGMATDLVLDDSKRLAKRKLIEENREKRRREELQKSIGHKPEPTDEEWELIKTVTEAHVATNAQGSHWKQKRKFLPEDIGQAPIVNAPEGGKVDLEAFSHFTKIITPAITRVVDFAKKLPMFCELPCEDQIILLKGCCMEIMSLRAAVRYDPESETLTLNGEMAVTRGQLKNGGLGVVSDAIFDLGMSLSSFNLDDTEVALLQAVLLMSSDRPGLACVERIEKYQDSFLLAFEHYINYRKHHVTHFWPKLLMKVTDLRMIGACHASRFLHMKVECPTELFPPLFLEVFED
UniProt Q12809, 1-548 isoform 6: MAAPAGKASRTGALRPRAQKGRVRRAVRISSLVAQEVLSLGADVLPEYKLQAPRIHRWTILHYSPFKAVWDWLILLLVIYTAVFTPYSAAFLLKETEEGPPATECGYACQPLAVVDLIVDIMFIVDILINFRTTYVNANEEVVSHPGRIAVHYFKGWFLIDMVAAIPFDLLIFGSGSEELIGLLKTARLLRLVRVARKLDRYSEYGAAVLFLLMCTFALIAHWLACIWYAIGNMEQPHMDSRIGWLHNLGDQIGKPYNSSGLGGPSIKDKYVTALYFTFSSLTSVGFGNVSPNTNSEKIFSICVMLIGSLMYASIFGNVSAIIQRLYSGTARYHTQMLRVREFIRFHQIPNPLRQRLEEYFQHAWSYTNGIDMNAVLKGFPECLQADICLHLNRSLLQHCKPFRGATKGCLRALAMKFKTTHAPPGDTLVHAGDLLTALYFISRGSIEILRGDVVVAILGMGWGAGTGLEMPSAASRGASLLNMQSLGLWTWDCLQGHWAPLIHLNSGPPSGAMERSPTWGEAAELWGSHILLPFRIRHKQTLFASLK
UniProt P01375, whole entry: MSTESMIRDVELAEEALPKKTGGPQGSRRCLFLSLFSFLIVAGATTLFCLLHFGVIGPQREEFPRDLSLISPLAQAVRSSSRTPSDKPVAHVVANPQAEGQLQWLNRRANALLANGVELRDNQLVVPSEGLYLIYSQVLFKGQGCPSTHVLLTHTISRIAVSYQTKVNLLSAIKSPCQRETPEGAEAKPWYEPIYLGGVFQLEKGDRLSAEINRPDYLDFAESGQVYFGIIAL

What was measured:
[1] = target: Thyroid hormone receptor beta (Homo sapiens) (UniProt P10828); experiment: qHTS assay for small molecule antagonists of thyroid hormone receptor beta signaling (AID 588547; active = well fitted inhibition curve with a large enough effect in the signal ratio, with a control signal flat, not every such curve was filed as active; the % refers to the signal ratio); settings: TR-UAS-bla HEK293, beta-lactamase ratio, antagonist mode, 18 h; stronger effect = lower value
Excerpt: NIH Chemical Genomics Center [NCGC] U.S. Environmental Protection Agency [EPA] National Institutes of Environmental Health Sciences [NIEHS] National Toxicology Program [NTP] NCGC Assay Overview Thyroid hormone receptor (TR) belongs to nuclear hormone receptor superfamily. There are two subtypes for TR: TR-alpha and TR-beta. TR-beta plays a major role in regulating plasma cholesterol levels and it mediates the biological activities of thyroid hormone. Screening environmental chemicals on TR-beta signaling will provide important information for the mechanism of compound action.
NCGC Assay Protocol Summary Using a beta-lactamase reporter-gene under control of the TR response element, a cell-based assay [GeneBLAzer TR-UAS-bla-GripTite assay developed by Invitrogen] was used to measure TR-beta signaling in antagonist mode. TR-UAS-bla-GripTite HEK 293 cells were used with assay medium containing 2% charcoal/dextran FBS, 0.1 mM NEAA and 1 mM sodium pyruvate. The assay was performed in clear bottom black Greiner 1536-well plates. Library compounds were measured for their ability to inhibit the reporter gene activity. Compounds were screened in a titration series in 1536-well format. The fluorescence intensity (405 nm excitation, 460/530 nm emission) was measured using an EnVision plate reader. […] Concentration-response titration points for each compound were fitted to the Hill equation yielding concentrations of half-maximal inhibition (IC50) and maximal response (efficacy) values. qHTS protocol for TR-beta beta-lactamase assay in antagonist mode [Step] [Parameter] [Value] [Description] 1. Reagent; 5 uL; 2500 cells/well 2. Incubation; 37 C for 4 hrs 3. Compounds; 23 nL; 0.59 nM to 92 uM 4. Controls (DMSO); 23 nL 5. Agonist (Stimulator); 1uL; T3 at 0.4nM (final) concentrations 6. Incubation; 37 C for 18 hrs 7. Detection reagent; 1 uL of CCF4-dye 8. Incubation; RT for 2 hrs 9. Detection; Fluorescence; Envision plate reader

[2] = target: Voltage-gated inwardly rectifying potassium channel KCNH2 (Homo sapiens) (UniProt Q12809); experiment: qHTS Assay for Small Molecule Inhibitors of the Human hERG Channel Activity (AID 588834); settings: U2OS BacMam hERG, FluxOR thallium flux fluorescence; at 92.2 µM (top of the series);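 also: U2OS cells transduced with hERG by BacMam; top concentration of the series differs between compounds; % is scaled to controls: 0 for no effect and ±100 for the full control effect; lower thallium flux fluorescence means stronger hERG block; nearly all actives have a fitted effect of over 50% in size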
[3] = qHTS assay for small molecule agonists of the antioxidant response element (ARE) signaling pathway (AID 651741; active = well fitted activation curve with a large enough effect in the signal ratio; the % refers to the signal ratio; also: % of control where 0% means no effect); settings: HepG2 ARE-bla reporter, beta-lactamase FRET ratio, 16 h; at 96 µM (top of the series)
Method in brief: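 CellSensor ARE-bla HepG2 cells (2,000/well) carrying ARE-driven beta-lactamase, exposed 16 h at 37 C. LiveBLAzer B/G FRET substrate added for 2 h at room temperature; fluorescence intensity read.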

[4] = qHTS assay for small molecule activators of the p53 signaling pathway (AID 651743; active = well fitted activation curve with a large enough effect in the signal ratio, not every such curve was filed as active; the % refers to the signal ratio; also: % of control where 0% means no effect); settings: HCT-116 p53RE-bla, beta-lactamase FRET ratio, 16 h; stronger effect = higher value
Method in brief: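 p53RE-bla HCT-116 cells carrying a beta-lactamase reporter under p53 response elements were exposed to compounds for 16 hours at 37 C. Reporter activity read as fluorescence after 2 hours at room temperature with LiveBLAzer B/G FRET substrate.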

[5] = qHTS assay for small molecule activators of the nuclear factor-kappa B (NF-kB) signaling pathway (AID 651749; active = well fitted activation curve with a large enough effect in the signal ratio; the % refers to the signal ratio; also: % of control where 0% means no effect); settings: NF-kB-bla ME-180 cells, beta-lactamase FRET ratio, 16 h; stronger effect = higher value
Method in brief: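 NF-kB-bla ME-180 cells carrying a beta-lactamase reporter under an NF-kB response element, 2,000 cells/well, exposed to compound for 16 hr at 37C; FRET-based beta-lactamase fluorescence read-out of pathway activation.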

[6] = qHTS assay for small molecule disruptors of the mitochondrial membrane potential - 1 hr assay (AID 651754; calls by dose curve; also: % is scaled to controls: 0 for no effect and ±100 for the full control effect; nearly all actives have a fitted effect of over 35% in size); settings: HepG2 mitochondrial membrane potential, JC-1 ratio 590/535, 1 h; at 92.2 µM (top of the series)
Method in brief: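 HepG2, 2,000 cells/well, overnight attachment; cpd or DMSO 1 hr, 37C/5% CO2; Mito-MPS dye 30 min, 37C; fluorescence monomer (490/535) and aggregate (540/590).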

[7] = qHTS assay for small molecule disruptors of the mitochondrial membrane potential - 5 hr assay (AID 651755; calls by dose curve; also: % is scaled to controls: 0 for no effect and ±100 for the full control effect; nearly all actives have a fitted effect of over 40% in size); settings: JC-1-type ratio dye; at 92.2 µM (top of the series)
[8] = target: Tumor necrosis factor (Homo sapiens) (UniProt P01375); experiment: qHTS assay to identify small molecules that stimulate Tumor Necrosis Factor-alpha (TNF-alpha) secretion (AID 651757; active = well fitted curve in the direction sought with a large enough effect in the signal ratio; the % refers to the signal ratio; also: 0% is about no effect); settings: Human cells, HTRF 665/615 ratio; at 92.2 µM (top of the series)
Method in brief: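 Read-out is HTRF, a TR-FRET sandwich of cryptate- and XL665-labeled anti-TNF-alpha antibodies detecting cytokine secreted by THP-1 cells. Cells had been incubated with test compounds at 37 C for 17 hrs beforehand.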

[9] = qHTS assay for environmental chemicals that activate the Aryl hydrocarbon Receptor (AhR) signaling pathway (AID 651777); settings: 1A2-DRE human hepatoma cells, luciferase, 24 h; stronger effect = higher value; also: % of control where 0% means no effect; nearly all actives have a fitted effect of over 15% in size
Method in brief: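 Quantitative HTS in stably transfected human liver-derived cells whose luciferase gene sits downstream of the CYP1A2 promoter and dioxin response element. After 24 hr exposure at 37 C, One-Glo luminescence was measured.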

[10] = qHTS assay to identify small molecules that stimulate interleukin-8 (IL-8) secretion (AID 651758; active = well fitted activation curve with a large enough effect in the signal ratio; the % refers to the signal ratio; also: 0% is about no effect); settings: HTRF ratio (665/615); at 92.2 µM (top of the series)
Method in brief: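 THP-1 cells (2000/well) exposed to compound 16 h at 37 C; secreted IL-8 then detected by HTRF with cryptate- and XL665-labelled anti-IL-8 antibody pair after 1-3 h at room temperature.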

CCOP(=O)(Cl)Cl
inactive: inhibition [1] -5.42% and 5.84% | activity change, negative = inhibition [2] 4.27% | activation [3] 7.15% and 5.84% | activation [4] 1.98% and 1.27% | activation [5] 1.05% and -0.428% | ratio change, negative = depolarisation [6] 1.07% | ratio change, negative = disruption [7] 4.39% | activation (TNF-alpha secretion) [8] -0.269% | activation [9] 0.025% and 0.0379%

ClCCOP(OCCCl)OCCCl
inactive: inhibition [1] -2.44% | activity change, negative = inhibition [2] 8.91% | activation [4] -1.07% | activation [5] -0.81% | ratio change, negative = depolarisation [6] 3.2% | ratio change, negative = disruption [7] 1.39% | activation (TNF-alpha secretion) [8] -0.0133% | activation [10] -10.9% | activation [9] -0.719%

O=[N+]([O-])c1ccccc1[N+](=O)[O-]
inactive: inhibition [1] 7.75% | activation [4] -5.19% | activation [5] -5.35% | activation [9] 4.19%
